Literature values as cited in paper PMC8037418, “Outlining In Vitro and In Silico Cholinesterase Inhibitory Activity of Twenty-Four Natural Products of Various Chemical Classes: Smilagenin, Kokusaginine, and Methyl Rosmarinate as Emboldening Inhibitors” (Molecules, 2021).

Amino acid sequences for entries named in this document (tags omitted). Residues count along the entry.
UniProt P06276, 29-602: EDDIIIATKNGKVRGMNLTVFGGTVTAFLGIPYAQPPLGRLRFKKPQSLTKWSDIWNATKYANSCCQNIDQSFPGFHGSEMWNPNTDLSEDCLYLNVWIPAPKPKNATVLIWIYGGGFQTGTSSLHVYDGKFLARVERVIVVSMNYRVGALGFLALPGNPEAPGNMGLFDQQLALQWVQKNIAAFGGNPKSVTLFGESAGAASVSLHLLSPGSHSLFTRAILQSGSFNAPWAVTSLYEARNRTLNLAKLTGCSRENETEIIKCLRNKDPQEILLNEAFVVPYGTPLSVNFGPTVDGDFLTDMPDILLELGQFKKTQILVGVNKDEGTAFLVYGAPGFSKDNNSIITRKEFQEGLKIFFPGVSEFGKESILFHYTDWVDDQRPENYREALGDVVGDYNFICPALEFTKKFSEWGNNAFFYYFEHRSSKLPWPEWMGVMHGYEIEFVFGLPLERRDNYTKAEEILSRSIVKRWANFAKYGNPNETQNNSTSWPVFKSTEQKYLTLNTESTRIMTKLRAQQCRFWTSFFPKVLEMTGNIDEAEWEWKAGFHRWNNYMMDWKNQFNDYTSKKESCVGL

Target: BChE (Homo sapiens, UniProt P06276)
Conditions: Calceolaria talcana study; cited from earlier work

Forsythoside B
IC50 BChE: 27.6 µg/mL
